Consider one substance from US12559733B2, “Optimization of type IV BRAF inhibitors for the treatment of melanoma” (UNIVERSITY OF SOUTH CAROLINA, priority 2020, dated 2026).

The nature of the series: Parallel artificial membrane permeability assay (PAMPA). As to conditions: phospholipid and dodecane artificial membrane, mass spectroscopy. It counts as in vitro ADME. On the procedure:
A parallel artificial membrane permeability assay (PAMPA) was carried out using phospholipid and dodecane as the artificial membrane.
For orientation: In PAMPA a lipid-coated filter parts donor from acceptor wells.

Consider “65 (KR; MOD_RES (2)..(2) N-methylated arginine) [compound 65]”, for which the passive permeability entry is listed as “no detectable trace of passive permeability”.
